Patent US9657260B2, “Method and system for continous monitoring of toxicity” (Yissum Research Development Company of The Hebrew …, priority 2014, dated 2017)

Test system: HepG2/C3A spheroids
Type: cell-based, human
Procedure: Quantitative Real Time Polymerase Chain Reaction (qRT-PCR). RNA was isolated and purified utilizing Macherey-Nagel NucleoSpin RNA II kit according to manufacturer instructions. RNA concentration and purity was determined using NanoDrop ND-1000 spectrophotometer (Thermo Fisher Scientific, USA). cDNA was synthesized from 1 μg RNA sample using qScript cDNA SuperMix (Quanta BioSciences, USA) according to the manufacturer protocol. Gene expression analysis was carried out utilizing KAPA SYBR FAST Universal 2X qPCR Master Mix (Kapa Biosystems, Boston, USA) on BioRad CFX96 Real-Time System (New South Wales, Australia), according to the manufacturer protocol. Gene transcription was evaluated using the ΔΔCt method normalized to 60S ribosomal protein L32 (RPL32) or ubiquitin C (UBC).

In the case of C[S+](C)[O-] [DMSO], the “increase in CYP2C9 expression” value is reported as 2 fold.
